Patent US9408793B2, “Selective compounds inhibiting CYP26A1 useful in cosmetic and pharmaceutical compositions” (GALDERMA RESEARCH & DEVELOPMENT, priority 2012, dated 2016)

Biological target: T1, human CYP26A1 enzyme (Homo sapiens, UniProt O43174)
T1 construct: expressed in transfected cells; host or cells: HeLa cells
T1 sequence (O43174 1-497): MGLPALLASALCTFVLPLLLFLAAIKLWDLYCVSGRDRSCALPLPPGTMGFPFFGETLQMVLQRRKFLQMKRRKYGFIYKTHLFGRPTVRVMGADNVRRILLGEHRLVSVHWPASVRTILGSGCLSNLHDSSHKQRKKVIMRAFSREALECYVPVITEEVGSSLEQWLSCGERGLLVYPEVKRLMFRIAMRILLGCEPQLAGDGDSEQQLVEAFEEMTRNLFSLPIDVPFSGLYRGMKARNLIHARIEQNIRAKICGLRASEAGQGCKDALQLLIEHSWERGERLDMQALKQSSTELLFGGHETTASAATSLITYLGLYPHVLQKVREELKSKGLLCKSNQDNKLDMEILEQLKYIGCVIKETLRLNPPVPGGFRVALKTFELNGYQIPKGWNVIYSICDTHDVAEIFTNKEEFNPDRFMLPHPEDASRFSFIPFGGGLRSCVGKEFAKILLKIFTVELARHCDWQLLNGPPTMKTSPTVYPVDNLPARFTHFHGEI
Test: Cell test, HeLa cells overexpressing human CYP26A1, metabolism of radiolabelled retinoic acid (3H-RA)
Type: cell-based
Details: 3 h incubation with 3H-RA, mean of two experiments
Description: A cell test using HeLa cells overexpressing either the human CYP26A1 enzyme or the human CYP26B1 enzyme, similar to that described in White et al.(Proc Natl Acad Sci U S A. 2000 Jun 6; 97(12): 6403-8), was used. Briefly, the cells were plated out in multiple-well plates and treated with the compounds according to the invention or the positive controls such as liarozole or rambazole, and subsequently exposed to radiolabelled retinoic acid (3H-RA). After the incubation time of 3 h, the reaction was stopped and an extraction phase was carried out in order to separate the aqueous and organic layers. The amount of radioactivity present in the aqueous layer was then measured as an indicator of the amount of RA which was metabolized.
A first experiment using 3 different concentrations of compounds according to the invention (0.1, 1 and 10 μM) was carried out in order to evaluate the inhibitory activity of the compounds. A second test was then carried out with a wide range of concentrations (0.01, 0.1, 0.5, 1, 5 and 10 μM). The results obtained during these two tests are similar.
The following table lists the mean of the AC50 values obtained over these two experiments.

Which AC50 does the source give for `Clc1cccc(C(c2ccc3[nH]cnc3c2)n2ccnc2)c1` (stereo not shown) [Liarozole] here?
The AC50 was 4 µM.
